What was measured:
[1] = Chemical stability of pHLIP conjugates in cell media (HPLC, mass spectroscopy); type: physicochemical; details: 10 μM conjugate in cell media, 2 h at pH 5.0 and 37 °C, every peak checked by mass spectroscopy (Figure S2)
Description: Figure S2. Chemical Stability of pHLIP conjugates. HPLC traces of 10 µM pHLIP-(KLAKLAK)2 (A)
collected and checked by mass spectroscopy. In all cases, the conjugates were found intact
(1 picture or pasted object on this page, not shown here)

[2] = tested on: MDA-MB-231 breast cancer cells; experiment: Anti-proliferation assay (MTT) after 2 h treatment at pH 7.4 or 5.0; type: cell-based, Human
Description: We have previously shown that this treatment protocol and pHLIP alone have no effect on MDA-MB-231 cell viability.
Figure 2 Inhibition of cell growth. MDA-MB-231 cells treated with 4-amino acid pHLIP-KLAKS conjugates. Black columns represent cells treated at pH 7.4 and cells treated at low pH are shown in grey. For each condition, 3,000 cells/well (96-well plate) were seeded, allowed to adhere overnight, treated for 2 hours, washed once with media and cultured for 72 hour in complete medium at physiologic pH. Cell viability was assessed with the MTT assay. All measurements were normalized to the media control (0 μM, pH 7.4), as 100% cell viability. Results are shown as mean ± SEM (n = 9–12).
For each condition, 3,000 cells/well (96-well plate) were seeded, allowed to adhere overnight, treated for 2 hours, washed once with media and cultured for 72 hour in complete medium at physiologic pH. Cell viability was assessed with the MTT assay. All measurements were normalized to the media control (0 μM, pH 7.4), as 100% cell viability. Results are shown as mean ± SEM (n = 9–12). […]
Figure 5 Effect of free peptides on cell viability. […] Cell viability was assessed with the MTT assay, and all measurements were normalized to the media control (0 μM, pH 7.4), as 100% cell viability. […]
Cells were seeded in 96-well plates at a density of 3,000 cells/well and incubated overnight. […] Treatment solutions were collected and their pH values measured using a micro-combination pH probe (Microelectrodes, Inc.). […] Cell viability was determined after 72 hours using the colorimetric MTT assay. […] The resulting formazan crystals were solubilized in 200 μL DMSO and the absorbance measured at 580 nm using an Infinite 200 PRO microplate reader (Tecan). Cell viability was calculated against control cells treated with media at physiologic pH. […]
Figure S1. […] Cell viability was assessed with the MTT assay. […] (B) After the 2-hour treatment, cells were detached and counted based on trypan blue uptake with an hemacytometer: % of intact cells corresponds to the number of cells not showing any dye uptake over the total number of cells. […]

MDA-MB-231 cells = experiment: Lactate dehydrogenase (LDH) release assay; type: cell-based, Human; details: 10 μM, 2 h at pH 7.4 or pH 5.0, mean ± SD, n = 3
Description: First, we assessed the effect of the conjugates on the integrity of cell membranes based on the uptake of Trypan Blue, which can be taken up by cells only if their plasma membrane is disrupted. […] We also measured the release of the intracellular enzyme lactate dehydrogenase (LDH) after peptide treatment, as another method to evaluate plasma membrane damage. […] Importantly, it was previously shown that neither pHLIP alone nor low pH treatments disrupts membranes, including that of MDA-MB-231 cells[20][23] (Figure S1).
Figure 4 Effect of free peptides and pHLIP-conjugates on Plasma Membrane Integrity and Lactate Dehydrogenase (LDH) Release. (A) The integrity of the plasma membrane is assessed by the uptake of trypan blue dye. […] Cells were detached and counted based on trypan blue uptake with an hemacytometer: % of intact cells corresponds to the number of cells not showing any dye uptake over the total number of cells. […] Cell media supernatant was monitored for the presence of LDH following treatment. […]
For the Trypan Blue plasma membrane integrity assays cells were seeded in 96-well plates at a density of 3,000 cells/well and incubated until confluent (~72 hours). […] After treatment, the media was removed, cells were detached using trypsin and counted based on trypan blue uptake using an hemacytometer. […] Percent LDH release was calculated against control cells treated with media at physiologic pH.

CC[C@H](C)[C@H](NC(=O)[C@@H]1CCCN1C(=O)[C@H](CC(N)=O)NC(=O)[C@H](CCC(N)=O)NC(=O)[C@H](CCC(=O)O)NC(=O)CNC(=O)CN)C(=O)N[C@@H](Cc1ccc(O)cc1)C(=O)N[C@@H](Cc1c[nH]c2ccccc12)C(=O)N[C@@H](C)C(=O)N[C@@H](CCCNC(=N)N)C(=O)N[C@@H](Cc1ccc(O)cc1)C(=O)N[C@@H](C)C(=O)N[C@@H](CC(=O)O)C(=O)N[C@@H](Cc1c[nH]c2ccccc12)C(=O)N[C@@H](CC(C)C)C(=O)N[C@@H](Cc1ccccc1)C(=O)N[C@H](C(=O)N[C@H](C(=O)N1CCC[C@H]1C(=O)N[C@@H](CC(C)C)C(=O)N[C@@H](CC(C)C)C(=O)N[C@@H](CC(C)C)C(=O)N[C@@H](CC(C)C)C(=O)N[C@@H](CC(=O)O)C(=O)N[C@@H](CC(C)C)C(=O)N[C@@H](C)C(=O)N[C@@H](CC(C)C)C(=O)N[C@@H](CC(C)C)C(=O)N[C@H](C(=O)N[C@@H](CC(=O)O)C(=O)N[C@@H](C)C(=O)N[C@@H](CC(=O)O)C(=O)N[C@@H](CCC(=O)O)C(=O)NCC(=O)N[C@H](C(=O)N[C@@H](CSSC[C@H](N)C(=O)N[C@@H](CCCCN)C(=O)N[C@@H](CC(C)C)C(=O)N[C@@H](C)C(=O)N[C@@H](CCCCN)C(=O)N[C@@H](CC(C)C)C(=O)N[C@@H](C)C(=O)N[C@@H](CCCCN)C(=O)N[C@@H](CCCCN)C(=O)N[C@@H](CC(C)C)C(=O)N[C@@H](C)C(=O)N[C@@H](CCCCN)C(=O)N[C@@H](CC(C)C)C(=O)N[C@@H](C)C(=O)N[C@@H](CCCCN)C(N)=O)C(=O)NCC(N)=O)[C@@H](C)O)C(C)C)[C@@H](C)O)[C@@H](C)O [pHLIP-(KLAKLAK)2]
chemical stability (degradation products by HPLC or mass spectroscopy) [1]: no degradation products | cell growth inhibition (up to) ([2]; low pH (5.0), highest inhibition over the concentration range tested (up to 10 μM), 2 h treatment, 72 h recovery): up to 85% | IC50 ([2]; pH 5.0, 2 h treatment at 37 °C, 72 h recovery in complete medium at physiologic pH, sigmoidal dose-response fit, mean ± SEM, n = 9–12): 1000 nM | effect on cell viability at physiological pH ([2]; pH 7.4, up to 10 μM, 2 h treatment, 72 h recovery): little to no significant decrease in cell viability | LDH release 2 and 24 hours after treatment (MDA-MB-231 cells): no significant LDH release
